In a melting point compilation (Tetko et al.):

`CCOc1nc(C(Cl)(Cl)Cl)ns1` showed a melting point of 22 °C.
